The text below walks through data of US11213543B2, “Human gastrointestinal microbiome modulating composition and methods of use” (priority 2011, dated 2022).

Consider `CN(C)C(=N)N=C(N)N` [metformin], for which the “blood sugar and its variance (standard deviation)” value (first 10 days of treatment, metformin, FORMULA A added on day 9) amounted to 344 ± 44.1 mg/dL. Further, where the note is “metformin 1000 mg twice a day alone, over 9 days, 375 mg/dL at diagnosis”, the fasting blood sugar result is listed as “about 325 mg/dL”.
